Values of other authors, collected in publication PMC4245237, “Searching the Cytochrome P450 Enzymes for the Metabolism of Meranzin Hydrate: A Prospective Antidepressant Originating from Chaihu-Shugan-San” (PLoS ONE, 2014).
Structures can show the parent of a compound that is named as a salt.

Molecular target: T1, CYP2A6 (Homo sapiens, UniProt P11509)
T1 sequence (P11509 1-494): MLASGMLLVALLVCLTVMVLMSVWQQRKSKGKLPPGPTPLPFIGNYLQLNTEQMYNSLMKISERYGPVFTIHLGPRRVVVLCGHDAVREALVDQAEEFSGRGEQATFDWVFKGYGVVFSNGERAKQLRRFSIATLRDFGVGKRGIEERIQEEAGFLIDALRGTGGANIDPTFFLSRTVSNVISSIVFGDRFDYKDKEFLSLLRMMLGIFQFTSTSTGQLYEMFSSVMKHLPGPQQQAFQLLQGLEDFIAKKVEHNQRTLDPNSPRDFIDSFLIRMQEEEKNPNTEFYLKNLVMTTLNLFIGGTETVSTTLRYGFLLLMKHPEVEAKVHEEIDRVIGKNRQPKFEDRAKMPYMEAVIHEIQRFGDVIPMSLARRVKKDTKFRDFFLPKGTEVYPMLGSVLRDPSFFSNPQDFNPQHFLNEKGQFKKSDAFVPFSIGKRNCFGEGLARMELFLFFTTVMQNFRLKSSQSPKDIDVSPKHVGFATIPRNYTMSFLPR
Details: cited from earlier work

N[C@@H]1C[C@H]1c1ccccc1 (relative stereo) [TRA, trans-2-phenylcyclopropylamine hydrochloride]
IC50 (read-out: IC50, specific inhibitor reported value): 420 nM
Ki (read-out: Ki, specific inhibitor reported value): 170 nM
